Source: publication PMC4254048

Legend:
[1] = target: PARKIN (unphosphorylated, WT) (UniProt O60260); experiment: BLI
[2] = target: PARKIN with K161, R163 or K211 individually mutated (Figure S5F)
[3] = target: PARKIN (unphosphorylated, WT) (UniProt O60260); experiment: SEC-MALS
[4] = target: PARKIN (unphosphorylated, WT) (UniProt O60260); experiment: ITC

Substance “p-UB (PINK1-phosphorylated UB) (from UniProt P0CG48 1-76) (natural protein)” has a Kd [1] of 0.411 µM, a Kd [2] of 0.14 to 0.158 µM and a stoichiometry N [3] of 1. The Kd [4] was 0.366 µM.
